The values below come from patent publication US20140255402A1 (priority 2013, published 2014).

The structures appear in SMILES notation. Where two headings read alike, the source gives them in different places.

This experiment deals with NALM/6 cells.

With `Nc1ccn([C@@H]2O[C@H](CO)[C@@H](O)[C@@H]2O)c(=O)n1` [Ara-C, Cytarabine], the “Median survival time (MST)” value (experiment 1, concurrent schedule, low dose: Ara-C 100 mg/kg daily x6, Combotox 0.8 mg/kg anti-CD19-dgRTA plus 0.5 mg/kg anti-CD22-dgRTA daily x6, i.v., start day 12) stood at 19 days; the “Median survival time (MST)” value (experiment 2, sequential schedule, high dose: Ara-C 200 mg/kg daily x3 on days 7-9, Combotox 2.4 mg/kg anti-CD19-dgRTA plus 1.5 mg/kg anti-CD22-dgRTA on days 14, 16 and 18) turned out to be 20 days.
